Structures are written as SMILES.

The chains behind the UniProt entries cited, without tags or fusion partners. Where a name states a change or a piece, a line headed by the entry shows the natural chain unless it says otherwise.
UniProt Q9Y572: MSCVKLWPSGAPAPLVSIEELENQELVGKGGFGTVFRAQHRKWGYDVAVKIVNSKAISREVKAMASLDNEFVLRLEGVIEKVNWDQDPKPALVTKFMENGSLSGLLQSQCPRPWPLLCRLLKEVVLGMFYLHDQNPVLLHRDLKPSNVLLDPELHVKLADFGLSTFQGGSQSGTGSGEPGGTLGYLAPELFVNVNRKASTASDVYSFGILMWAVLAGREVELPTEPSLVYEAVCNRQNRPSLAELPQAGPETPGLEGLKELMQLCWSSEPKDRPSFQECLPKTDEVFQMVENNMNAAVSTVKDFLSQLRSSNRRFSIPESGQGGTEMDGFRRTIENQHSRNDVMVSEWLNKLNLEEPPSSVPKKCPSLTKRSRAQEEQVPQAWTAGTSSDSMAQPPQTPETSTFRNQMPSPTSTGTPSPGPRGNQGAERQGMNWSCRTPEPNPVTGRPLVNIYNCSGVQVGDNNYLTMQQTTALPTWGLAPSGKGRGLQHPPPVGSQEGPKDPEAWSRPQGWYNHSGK

By Kd is commonly meant the equilibrium constant for the complex coming apart. Low readings indicate higher affinity, high ones lower affinity.

This experiment has as its target T1, RIP3 (Homo sapiens, UniProt Q9Y572).
T1 construct: purchased DiscoverX (KINOMEscan service); host or cells: E. coli BL21-derived (T7 phage) or HEK293
Nature of the experiment: KINOMEscan binding assay, RIP3. Particulars: equilibrium dissociation constant, class symbols.
In the case of `NC(=O)c1c(-c2ccc(NS(=O)(=O)CC(F)(F)F)c(OCc3ccc(F)cc3)c2)n[nH]c1Nc1ccccn1` [Compound 239], the Kd is > 30 µM.
Turning to `C[C@H](Oc1cc(NS(=O)(=O)C(F)F)ccc1-c1n[nH]c(Nc2cnccn2)c1C(N)=O)c1ccc(F)cc1` [Compound 243, 3-[4-(difluoromethanesulfonamido)-2-[(1S)-1-(4-fluorophenyl)ethoxy]phenyl]-5-[(pyrazin-2-yl)amino]-1H-pyrazole-4-carboxamide], the Kd is > 30 µM.
As for `Cc1cnc(Nc2[nH]nc(-c3ccc(NS(=O)(=O)C(F)F)c(O[C@@H](C)c4ccc(F)cc4)c3)c2C(N)=O)cn1` [Compound 245, 3-[4-(difluoromethanesulfonamido)-3-[(1S)-1-(4-fluorophenyl)ethoxy]phenyl]-5-[(5-methylpyrazin-2-yl)amino]-1H-pyrazole-4-carboxamide], the figure is > 30 µM; as for `C[C@@H](Oc1cc(NS(=O)(=O)C(F)F)ccc1-c1n[nH]c(Nc2cnccn2)c1C(N)=O)c1ccc(F)cc1` [Compound 255, 3-[4-(difluoromethanesulfonamido)-2-[(1R)-1-(4-fluorophenyl)ethoxy]phenyl]-5-[(pyrazin-2-yl)amino]-1H-pyrazole-4-carboxamide], > 30 µM; as for `C[C@H](Oc1cc(-c2n[nH]c(Nc3cnccn3)c2C(N)=O)ccc1NS(=O)(=O)CC(F)(F)F)c1ccc(Cl)cc1` [Compound 259, 3-{3-[(1S)-1-(4-chlorophenyl)ethoxy]-4-(2,2,2-trifluoroethane-sulfonamido)phenyl}-5-[(pyrazin-2-yl)amino]-1H-pyrazole-4-carboxamide], > 30 µM.
`Cc1cnc(Nc2[nH]nc(-c3ccc(NS(=O)(=O)CC(F)(F)F)c(O[C@@H](C)c4ccc(F)cc4)c3)c2C(N)=O)cn1` [Compound 264, 3-{3-[(1S)-1-(4-fluorophenyl)ethoxy]-4-(2,2,2-trifluoroethanesulfonamido)phenyl}-5-[(5-methylpyrazin-2-yl)amino]-1H-pyrazole-4-carboxamide]: the Kd is > 30 µM.
Take `NC(=O)c1c(-c2ccc(NS(=O)(=O)CC(F)(F)F)c(OCc3ccc(Cl)cc3)c2)n[nH]c1Nc1ccccn1` [Compound 269, 3-{3-[(4-chlorophenyl)methoxy]-4-(2,2,2-trifluoroethanesulfonamido)phenyl}-5-[(pyridin-2-yl)amino]-1H-pyrazole-4-carboxamide]: the Kd was > 30 µM.
As for `CCc1cc(Nc2[nH]nc(-c3ccc(NS(=O)(=O)C(F)F)c(O[C@@H](C)c4ccc(F)cc4)c3)c2C(N)=O)no1` [Compound 274, (S)-3-(4-((difluoromethyl)sulfonamido)-3-(1-(4-fluorophenyl)ethoxy)phenyl)-5-((5-ethylisoxazol-3-yl)amino)-1H-pyrazole-4-carboxamide], the figure is > 30 µM.
As to `C[C@H](Oc1cc(-c2n[nH]c(Nc3cc(C(C)(C)C)on3)c2C(N)=O)ccc1NS(=O)(=O)C(F)F)c1ccc(F)cc1` [Compound 282, (S)-5-((5-(tert-butyl)isoxazol-3-yl)amino)-3-(4-((difluoromethyl)sulfonamido)-3-(1-(4-fluorophenyl)ethoxy)phenyl)-1H-pyrazole-4-carboxamide], the Kd is > 30 µM.
On to `C[C@H](Oc1cc(-c2n[nH]c(Nc3cc(C(C)(C)F)on3)c2C(N)=O)ccc1NS(=O)(=O)C(F)F)c1ccc(F)cc1` [Compound 297], for which the Kd was > 30 µM.
In the case of `C[C@H](Oc1cc(-c2n[nH]c(Nc3cc(C45CC6CC(CC(C6)C4)C5)on3)c2C(N)=O)ccc1NS(=O)(=O)C(F)F)c1ccc(F)cc1` [Compound 304, (S)-5-((5-(adamantan-1-yl)isoxazol-3-yl)amino)-3-(4-((difluoromethyl)sulfonamido)-3-(1-(4-fluorophenyl)ethoxy)phenyl)-1H-pyrazole-4-carboxamide], the Kd was > 30 µM.
